These results are taken from publication PMC2974439 (Biochemistry, 2010).

The target in one experiment is H6-VioO with VioN (Streptomyces vinaceus, UniProt Q6WZ98). Description: ATP/PPi exchange assay. The following applies: 100 nM H6-VioO with 1.6 μM VioN, 1 mM β-Lys, 1 hr.
The target of a further experiment is H6-CmnO with CmnN (Saccharothrix mutabilis, UniProt A6YEI6). Description: ATP/PPi exchange assay. The following applies: 100 nM H6-CmnO with 1.6 μM CmnN, 1 mM β-Lys, 15 min.

Take `NCCC[C@H](N)CC(=O)O` [β-Lys]: the ATP/PPi exchange assay entry is “VioN to the VioO reactions resulted in β-Lys activation” at H6-VioO with VioN and “The addition of purified CmnN to the CmnO reactions” at H6-CmnO with CmnN.
